# Experimental data: paper PMC1084349 (BMC Neuroscience, 2005)
# Molecular target: T1, rTas1r2-hTAS1R3 (UniProt Q7RTX0+Q9Z0R7)
# T1 sequence (Q9Z0R7 20-843): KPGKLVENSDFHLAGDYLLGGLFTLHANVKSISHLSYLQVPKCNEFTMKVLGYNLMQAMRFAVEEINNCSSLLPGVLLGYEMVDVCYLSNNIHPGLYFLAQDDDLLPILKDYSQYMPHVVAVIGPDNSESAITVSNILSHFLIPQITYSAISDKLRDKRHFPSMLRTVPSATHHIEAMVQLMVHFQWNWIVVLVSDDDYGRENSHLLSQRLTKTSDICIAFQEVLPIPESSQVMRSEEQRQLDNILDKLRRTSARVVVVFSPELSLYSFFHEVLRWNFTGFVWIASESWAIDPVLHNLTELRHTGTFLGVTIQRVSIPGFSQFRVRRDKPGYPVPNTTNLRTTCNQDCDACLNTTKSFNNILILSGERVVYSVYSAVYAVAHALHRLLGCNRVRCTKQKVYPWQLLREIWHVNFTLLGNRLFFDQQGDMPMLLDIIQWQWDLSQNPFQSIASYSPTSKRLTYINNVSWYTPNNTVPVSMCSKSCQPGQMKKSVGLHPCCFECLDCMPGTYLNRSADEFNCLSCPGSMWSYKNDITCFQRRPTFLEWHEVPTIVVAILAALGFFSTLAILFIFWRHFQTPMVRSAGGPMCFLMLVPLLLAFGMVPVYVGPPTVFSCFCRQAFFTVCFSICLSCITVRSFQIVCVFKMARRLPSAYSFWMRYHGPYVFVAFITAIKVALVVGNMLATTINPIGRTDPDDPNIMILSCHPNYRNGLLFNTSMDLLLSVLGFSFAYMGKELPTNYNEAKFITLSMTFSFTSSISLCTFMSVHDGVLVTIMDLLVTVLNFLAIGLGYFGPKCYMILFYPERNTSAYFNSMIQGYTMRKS
# T1 sequence (Q7RTX0 21-852): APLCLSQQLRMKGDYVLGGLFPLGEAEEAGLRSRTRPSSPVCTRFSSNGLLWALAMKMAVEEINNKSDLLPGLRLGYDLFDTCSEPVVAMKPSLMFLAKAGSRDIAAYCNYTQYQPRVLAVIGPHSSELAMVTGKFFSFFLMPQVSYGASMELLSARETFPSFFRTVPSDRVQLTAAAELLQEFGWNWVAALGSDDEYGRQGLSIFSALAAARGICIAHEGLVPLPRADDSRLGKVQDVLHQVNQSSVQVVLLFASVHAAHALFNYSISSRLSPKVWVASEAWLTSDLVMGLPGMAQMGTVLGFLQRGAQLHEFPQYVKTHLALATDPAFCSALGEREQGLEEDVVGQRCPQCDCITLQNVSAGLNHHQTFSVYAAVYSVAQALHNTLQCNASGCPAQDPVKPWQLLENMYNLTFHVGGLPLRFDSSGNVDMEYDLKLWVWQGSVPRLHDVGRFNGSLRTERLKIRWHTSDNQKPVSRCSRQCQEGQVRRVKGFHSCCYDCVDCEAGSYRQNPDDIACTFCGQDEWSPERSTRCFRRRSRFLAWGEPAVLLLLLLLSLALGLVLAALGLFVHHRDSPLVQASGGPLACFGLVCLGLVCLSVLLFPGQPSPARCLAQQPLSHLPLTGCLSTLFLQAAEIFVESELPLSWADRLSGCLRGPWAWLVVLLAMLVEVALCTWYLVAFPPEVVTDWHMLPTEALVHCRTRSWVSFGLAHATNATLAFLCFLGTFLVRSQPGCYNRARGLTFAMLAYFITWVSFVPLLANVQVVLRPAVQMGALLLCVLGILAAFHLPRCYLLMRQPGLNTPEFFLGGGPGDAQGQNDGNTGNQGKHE
# Assay: Calcium mobilization (FLIPR), interspecies combination
# Conditions: asp 15 mM; cyc 30 mM; neo 0.1 mM; sac 10 mM; suc 100 mM; stev 1 mM; markedly reduced amplitudes
smiles,measurement,value
O=C1NS(=O)(=O)c2ccccc21 [saccharin],activation of receptor (calcium response),failed to activate
